# Measured values published in ChEMBL document CHEMBL1208783, “An orally bioavailable positive allosteric modulator of the mGlu4 receptor with efficacy in an animal model of motor dysfunction” (Bioorg Med Chem Lett, 2010).
# Target: Metabotropic glutamate receptor 5 (Homo sapiens, UniProt P41594)
# Assay: Selectivity ratio of IC50 for human mGluR5 to EC50 for human mGluR5
smiles,measurement,value
Nc1nccc(/C=C/c2ccccc2)n1,Selectivity ratio,> 30
